Measured values reported in ChEMBL document CHEMBL2016464, “Identification of Inhibitors of NOD1-Induced Nuclear Factor-κB Activation” (ACS Med Chem Lett, 2011).

Amino acid sequences for entries named in this document (tags omitted).
UniProt Q9HC29, whole entry: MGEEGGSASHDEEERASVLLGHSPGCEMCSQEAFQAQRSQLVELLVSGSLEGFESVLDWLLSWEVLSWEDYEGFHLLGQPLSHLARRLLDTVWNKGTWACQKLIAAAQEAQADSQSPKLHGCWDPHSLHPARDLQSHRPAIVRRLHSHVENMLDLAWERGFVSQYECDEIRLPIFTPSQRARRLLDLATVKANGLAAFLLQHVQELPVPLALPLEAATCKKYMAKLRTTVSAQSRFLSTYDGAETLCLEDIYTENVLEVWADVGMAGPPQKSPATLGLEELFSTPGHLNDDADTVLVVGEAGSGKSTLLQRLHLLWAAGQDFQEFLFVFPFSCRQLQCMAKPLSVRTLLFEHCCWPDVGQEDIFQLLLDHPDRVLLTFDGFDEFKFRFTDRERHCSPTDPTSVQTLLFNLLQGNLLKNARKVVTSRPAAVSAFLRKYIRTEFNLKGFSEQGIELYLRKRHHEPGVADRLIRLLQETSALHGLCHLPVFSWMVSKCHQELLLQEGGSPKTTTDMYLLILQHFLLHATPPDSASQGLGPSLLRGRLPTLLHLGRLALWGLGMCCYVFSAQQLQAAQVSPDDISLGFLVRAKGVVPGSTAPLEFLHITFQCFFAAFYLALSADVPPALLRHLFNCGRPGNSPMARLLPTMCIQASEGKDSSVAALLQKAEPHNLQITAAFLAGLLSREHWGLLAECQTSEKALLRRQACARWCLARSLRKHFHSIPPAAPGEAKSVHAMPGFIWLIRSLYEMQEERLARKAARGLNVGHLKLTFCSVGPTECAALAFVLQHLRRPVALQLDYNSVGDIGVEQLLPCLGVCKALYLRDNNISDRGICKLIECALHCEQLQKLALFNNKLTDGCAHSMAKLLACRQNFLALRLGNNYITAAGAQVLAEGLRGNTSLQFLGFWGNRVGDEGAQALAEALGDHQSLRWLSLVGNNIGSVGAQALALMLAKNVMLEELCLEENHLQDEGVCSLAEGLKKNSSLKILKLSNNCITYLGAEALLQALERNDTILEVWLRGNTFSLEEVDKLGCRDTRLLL

Biological target: Nucleotide-binding oligomerization domain-containing protein 2 (Homo sapiens, UniProt Q9HC29)

Nc1nc2ccccc2n1C(=O)c1ccc(Cl)cc1Cl
IC50: 3.8 µM
